Measured values as given in publication PMC8551951 (Biophysical Reviews, 2021).

System: MDA-MB-231 and MCF-7

Substance: heparin
- cell viability: significant cell death
